# Earlier results as cited in patent publication US20060025476A1, “Use of methyl pyruvate for the purpose of reducing weight gain in mammals” (priority 2004, published 2006).
# Tested on: fetal rat brown adipocyte primary cultures
compound,measurement,value
O=[N+]([O-])c1ccc(-c2nc(-c3ccncc3)c(-c3ccc(F)cc3)[nH]2)cc1 [PD169316],ability of Rosi and retinoids for UCP-1 induction,impairs
